For one compound, Ratio IC50 results are on record in ChEMBL document CHEMBL5352423, “Discovery of potent human dihydroorotate dehydrogenase inhibitors based on a benzophenone scaffold” (Eur J Med Chem, 2022).

Amino acid sequences for entries named in this document (tags omitted). A change or cut given only in a name is not applied to a line headed by its entry.
UniProt Q02127: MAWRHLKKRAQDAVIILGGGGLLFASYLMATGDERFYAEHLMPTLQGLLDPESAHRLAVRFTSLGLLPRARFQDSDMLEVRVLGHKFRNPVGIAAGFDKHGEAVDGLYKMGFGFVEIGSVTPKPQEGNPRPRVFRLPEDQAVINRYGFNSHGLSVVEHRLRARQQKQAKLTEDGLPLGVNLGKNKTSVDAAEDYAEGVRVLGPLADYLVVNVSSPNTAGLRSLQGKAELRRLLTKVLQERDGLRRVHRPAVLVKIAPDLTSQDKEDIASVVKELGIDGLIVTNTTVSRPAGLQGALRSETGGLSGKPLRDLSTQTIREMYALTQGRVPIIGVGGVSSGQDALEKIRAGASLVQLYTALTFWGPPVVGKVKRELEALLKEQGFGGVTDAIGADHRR

For this assay, the target named is Dihydroorotate dehydrogenase (quinone), mitochondrial (Homo sapiens, UniProt Q02127). As to the kind of experiment: Potency index, ratio of teriflunomide IC50 to test compound IC50 for human DHODH.

Turning to `C/C(O)=C(\C#N)C(=O)Nc1cc(O[C@@H](C)C(F)(F)F)c(C(=O)c2ccccc2Cl)cc1F`, the Ratio IC50 is 37.
